# Measured affinities in a library of Ab-14 heavy chain variants

Target peptide (SARS-CoV-2 spike, HR2 region): PDVDLGDISGINAS

Parent: Ab-14, a human scFv built as VH, a 15-residue (Gly4Ser)3 linker, VL. Only the CDRs of the heavy chain vary.
VH: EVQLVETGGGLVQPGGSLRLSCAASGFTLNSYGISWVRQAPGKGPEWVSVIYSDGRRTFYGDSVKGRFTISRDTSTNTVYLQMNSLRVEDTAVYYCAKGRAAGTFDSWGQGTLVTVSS
VL: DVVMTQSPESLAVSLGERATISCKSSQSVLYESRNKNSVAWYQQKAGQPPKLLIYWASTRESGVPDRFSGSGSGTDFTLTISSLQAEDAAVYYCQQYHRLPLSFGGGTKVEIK

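Phage display of a naive human antibody library on the peptide gave the parent. The library (AAYL49) carries one to three amino acid substitutions per variant, with no insertions or deletions. The scFvs were displayed on barcoded MATa yeast, the peptide on MATalpha yeast. Mating (16 h, 30 °C) was followed by selection of diploids and sequencing of their barcodes. The ratio of observed to expected reads was calibrated, replicate by replicate, on BCL2-family standards whose Kd was known from biolayer interferometry. The assay was run in three technical replicates.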

Variants are written as CDR1, CDR2 and CDR3 of the heavy chain (limits as in the source). Parent: GFTLNSYGIS, VIYSDGRRTFYGDSVK, GRAAGTFDS.
Numbers give log10(Kd / nM), so 0 is 1 nM and 3 is 1 µM. Smaller is tighter.
A pair that was not seen in that replicate is written "nd"; this usually means weak binding, but a binder can also be missed.
Three control strains display no target. For library AAYL49, 15% of the pairings with them gave a signal, with a median of 4.06 and one signal in twenty below 2.83, so weak values seen in few replicates may be background. For each scFv, signals with the empty controls are counted beside the result, with their mean in brackets.

CDR-H1	CDR-H2	CDR-H3	log10 Kd (nM) by replicate	signal with controls
GFTLNSYGIM	NIYSDGRRTFYGMSVK	GRAAGTFDS	nd 3.78 nd	4 of 9 (4.14)
GFTLNSYGIS	GIYSDGRRTFYGDSVK	GCAAGTVDS	nd nd nd	0 of 9
GQTLNSYGIS	VIYFDGRRTFYGDSVK	GRAAGTFDS	2.25 2.32 2.72	2 of 9 (3.38)
GFTLNSYDIS	VSYSDGRRTFYGDGVK	GRAAGTFDS	6.10 4.59 nd	4 of 9 (4.08)
GFTLNCYGIS	VDYSDGRRTRYGDSVK	GRAAGTFDS	nd nd 3.88	4 of 9 (4.19)
GFQLNSYGIS	VIYSDGRRHFYGDSVK	GRAAGTFRS	nd nd nd	2 of 9 (4.30)
GVTLNSYGIS	VIYSDGRRTFYGDAVK	GRAQGTFDS	nd nd nd	0 of 9
GFTLNSYGIS	VIHSDGRQTFYGDSVK	GRAAGTFDS	4.73 nd nd	2 of 9 (4.26)
GFTLNSYGIS	VIYSDGRRTPYGDSVN	GRAAGTFDS	4.50 nd nd	3 of 9 (3.70)
GFTLNAYGIS	VIYSDGRRTFYGDSVK	GRAAGTFDF	1.59 1.76 1.64	0 of 9
GFELNSYGIS	VIYRDYRRTFYGDSVK	GRAAGTFDS	nd nd nd	0 of 9
GFTLNSYGIS	VIRSDGRRTFYGDCVK	GRAAGTFDS	nd nd nd	0 of 9
FFTLNSYGIS	VIYSDGRRTFHGDSVK	GRAAGTDDS	4.78 nd nd	0 of 9
GFTLNSYGIE	VIYSDGRMTFYIDSVK	GRAAGTFDS	nd nd 3.95	4 of 9 (4.28)
GWTLNPYGIS	VIYIDGRRTFYGDSVK	GRAAGTFDS	nd nd nd	1 of 9 (3.58)
GFTLNSYGIS	VIYSDIRPTFYGDSVK	GRAADTFDS	nd 4.16 nd	3 of 9 (4.73)
GFTLKSYGIS	VIYSDGRRTFYGDSVK	KRAAGTADS	nd nd nd	2 of 9 (3.88)
GFTLNSYDIS	VIYSDGQRTGYGDSVK	GRAAGTFDS	nd nd nd	0 of 9
GFTLNSYGIS	VIYSDGRQTFYGLSVK	GMAAGTFDS	5.18 3.53 6.10	6 of 9 (4.29)
GFTLNSYGIS	AIYSDGRHTFYGDSVK	GRAAGTFFS	nd nd 3.74	2 of 9 (3.50)
FFTLNSYGIS	VIYSDGRRTFYGDSVK	GRAHGRFDS	nd nd nd	2 of 9 (4.44)
GFTLNSYGIS	VIYIDGRRTFEGDSVK	GRAAGTKDS	nd nd 2.91	4 of 9 (3.78)
GFTLNSEGIS	VITSDGRRTFYGDSVK	GRAAGTFDS	2.68 3.41 2.63	4 of 9 (4.03)
GFTLNSYGIS	VIYSDGRRTFCGDSVK	GRAIGTFDS	nd nd nd	0 of 9
GFTLNSYGIS	VIYSDGRRTFYGDSVK	GRHKGTFDS	1.35 1.54 1.68	2 of 9 (3.34)
LFTLNSYGIP	VIYSDGRRTFYGDSVK	GRAAGTNDS	4.51 3.91 5.07	6 of 9 (5.20)
GFTLNSYGIS	VIYSDGRRTFYGDSSD	GRAATTFDS	nd 2.94 nd	1 of 9 (3.44)
GFTLNSYGIS	VIYPDGFRTFYGDSVK	GRAAGTFWS	2.77 2.89 3.50	1 of 9 (5.10)
FFMLNSYGIS	VIYSDGRRTFYGDSVK	GRMAGTFDS	nd nd nd	0 of 9
GFTLNSYHIS	QIYSDGRRTFYGDSVK	ARAAGTFDS	nd nd nd	0 of 9
GQTLNSYGIS	VICSDGRRTFYGDSVK	GRACGTFDS	nd 3.42 4.19	1 of 9 (4.13)
GFTLNSYGIS	VDYSLGRRTFYGDSVK	GRAAGAFDS	nd nd 4.29	1 of 9 (3.24)
GFTLNSYTIS	VILSDGRRTFYGDSVK	GRAAGTFRS	5.40 nd 4.10	2 of 9 (5.21)
GFTLNSYGIC	VIYSDGRRQFYGDSWK	GRAAGTFDS	nd 4.12 nd	1 of 9 (4.76)
GFTDNSYGIS	VIYDDGRRTFYGDSVK	GRAAGKFDS	nd nd nd	4 of 9 (3.96)
GFTLNSYGIS	DIYSDGRRDFYGDSVK	GRAAGTGDS	nd nd nd	1 of 9 (4.13)
GFTINSYGIS	VIYSDGRRTFDGDSVK	GRAAGTFYS	nd nd nd	0 of 9
GFTLPSRGIS	VIYSVGRRTFYGDSVK	GRAAGTFDS	nd 4.66 4.07	0 of 9
GFTLNSYGSS	VIYSDGRRYFYGDSVK	GRAAGTFDS	nd nd nd	0 of 9
GATLNSYGIS	VIYSDGRDTFYGDSVK	GRAAGPFDS	3.78 nd nd	0 of 9
GFTLNSYGIE	VLYSDGRRTFYGDSVK	GRAAGTFDG	nd nd nd	1 of 9 (4.74)
GFTLNSFGIS	VIYSDGRRTKYGDSVK	GRAAGTFCS	nd nd nd	0 of 9
GFTLNSYGSS	VIGSDGRRTFYGDSVK	IRAAGTFDS	nd nd 3.96	1 of 9 (4.42)
GFTLNSYGIS	VIYSDGRRTFYGDSVK	GRCRGVFDS	1.80 1.69 1.96	2 of 9 (4.20)
GFELNSYGIS	VIYSLGRRTGYGDSVK	GRAAGTFDS	nd 3.94 nd	3 of 9 (3.74)
EITLNSYGIS	VIYSDGRRTFYGDSVK	GRAAGTFWS	nd nd nd	0 of 9
GFTLNSYMIS	VIYSDGRRTFYGDNVK	GRAAGTFDS	nd nd nd	1 of 9 (3.27)

The measurements come from Engelhart et al. 2022 (doi:10.1038/s41597-022-01779-4) through the FLAb antibody collection.